In PMC7272617 (Scientific Reports, 2020):
≈ marks a conversion by molar mass, not a printed value.

How the values were obtained:
[1] = system: Escherichia coli ATCC 25922; details: E. coli ATCC 25922; MHB, 37 °C, 24 h
[2] = system: human red blood cells (hRBCs); experiment: Hemolytic activity, hemoglobin release; details: 2% hRBC in PBS, 1 h, 37 °C, absorbance 405 nm; tested 0.98 to 250 µg/ml
[3] = system: Staphylococcus aureus ATCC 25923; details: S. aureus ATCC 25923; MHB, 37 °C, 24 h

CC[C@H](C)[C@H](NC(=O)CN)C(=O)NCC(=O)N[C@@H](C)C(=O)N[C@H](C(=O)N[C@@H](CC(C)C)C(=O)N[C@@H](CCCCN)C(=O)N[C@H](C(=O)N[C@@H](CC(C)C)C(=O)N[C@H](C(=O)N[C@H](C(=O)NCC(=O)N[C@@H](CC(C)C)C(=O)N1CCC[C@H]1C(=O)N[C@@H](C)C(=O)N[C@@H](CC(C)C)C(=O)N[C@H](C(=O)N[C@@H](CO)C(=O)N[C@@H](Cc1c[nH]c2ccccc12)C(=O)N[C@H](C(=O)N[C@@H](CCCCN)C(=O)N[C@@H](CCCNC(=N)N)C(=O)N[C@@H](CCCCN)C(=O)N[C@@H](CCCNC(=N)N)C(=O)N[C@@H](CCC(N)=O)C(=O)N[C@@H](CCC(N)=O)C(N)=O)[C@@H](C)CC)[C@@H](C)CC)[C@@H](C)O)[C@@H](C)O)C(C)C)C(C)C [Melittin, reference compound]
MIC [1]: 31.25 µg/mL (≈ 11 µM)
MHC (minimum concentration that caused 10% hemolysis of human red blood cells) [2]: ˂0.98 µg/ml
MIC [3]: 3.91 µg/mL (≈ 1.37 µM)
